In patent US9150578B2, “5,8-dihydro-6H-pyrazolo[3,4-h]quinazolines as IGF-1R/IR inhibitors” (Boehringer Ingelheim International GmbH, priority 2012, dated 2015):

Each compound was assayed on TC-71 (Ewing's sarcoma) cells (assay: Cell proliferation assay, TC-71 (Alamar Blue)). Conditions: TC-71 cells, 72 h, read-out: TC71 EC50 range.
Assay type: cell-based

Structure (SMILES)	EC50
COc1cc(C(=O)NC[C@@H]2CCCO2)ccc1Nc1ncc2c(n1)-c1c(nn(C)c1-c1ccc(-c3cnn(C)c3)cc1)CC2 [I-162]	< 10 nM
COCCN(C)C(=O)c1ccc(Nc2ncc3c(n2)-c2c(nn(C)c2-c2ccc(-c4cnn(C)c4)cc2)CC3)c(OC)c1 [I-165]	< 10 nM
COc1cc(N2CCN(C)CC2)ccc1Nc1ncc2c(n1)-c1c(nn(C)c1-c1ccc(-c3cnn(C)c3)cc1)CC2 [I-169]	< 10 nM
COc1cc(N2CCN(CCO)CC2)ccc1Nc1ncc2c(n1)-c1c(nn(C)c1-c1ccc(-c3cnn(C)c3)cc1)CC2 [I-174]	< 10 nM
Cn1cc(-c2ccc(-c3c4c(nn3C)CCc3cnc(Nc5ccn(C)n5)nc3-4)cn2)cn1 [I-179]	10 to 100 nM
CN(C)CCn1ccc(Nc2ncc3c(n2)-c2c(nn(C)c2-c2ccc(-c4cnn(C)c4)nc2)CC3)n1 [I-181]	10 to 100 nM
COCCn1ccc(Nc2ncc3c(n2)-c2c(nn(C)c2-c2ccc(-c4cnn(C)c4)nc2)CC3)n1 [I-182]	10 to 100 nM
CN(C)CCn1cc(Nc2ncc3c(n2)-c2c(nn(C)c2-c2ccc(-c4cnn(C)c4)nc2)CC3)cn1 [I-184]	10 to 100 nM
Cn1cc(Nc2ncc3c(n2)-c2c(nn(C)c2-c2ccc(-c4cnn(C)c4)nc2)CC3)cn1 [I-185]	< 10 nM
COCCn1cc(Nc2ncc3c(n2)-c2c(nn(C)c2-c2ccc(-c4cnn(C)c4)nc2)CC3)cn1 [I-186]	10 to 100 nM
CCn1cc(Nc2ncc3c(n2)-c2c(nn(C)c2-c2ccc(-c4cnn(C)c4)nc2)CC3)cn1 [I-187]	< 10 nM
Cn1cc(-c2ccc(-c3c4c(nn3C)CCc3cnc(Nc5cnn(CCN6CCOCC6)c5)nc3-4)cn2)cn1 [I-188]	10 to 100 nM
CC(C)n1cc(Nc2ncc3c(n2)-c2c(nn(C)c2-c2ccc(-c4cnn(C)c4)nc2)CC3)cn1 [I-189]	< 10 nM
COCCn1ccc(Nc2ncc3c(n2)-c2c(nn(C)c2-c2ccc(-c4cnn(CCN5CCO[C@@H](C)C5)c4)cc2)CC3)n1 [I-190]	< 10 nM
